Reference: patent US9994581B2, “Bromodomain inhibitors” (AbbVie Inc., priority 2013, dated 2018)

Target: BRD4 (BDI-BDII_K57-K550) (Homo sapiens, UniProt O60885)
Experiment: TR-FRET bromodomain binding assay
Settings: His-tagged tandem bromodomain, Alexa647-labeled probe; Ki calculated from IC50s, probe Kd and probe concentration
Method: A time-resolved fluorescence resonance energy transfer (TR-FRET) assay was used to determine the affinities of compounds of the Examples listed in Table 1 for the tandem domain of bromodomain BRD4. […] An Alexa647-labeled BET-inhibitor was used as the fluorescent probe in the assay.
TR-FRET data were normalized to the means of 24 no-compound controls (“high”) and 8 controls containing 1 μM un-labeled probe (“low”). Percent inhibition was plotted as a function of compound concentration and the data were fit with the 4 parameter logistic equation to obtain IC50s. Inhibition constants (Ki) were calculated from the IC50s, probe Kd and probe concentration. Typical Z′ values were between 0.65 and 0.75.

`CCS(=O)(=O)Nc1ccc2c(c1)-c1cn(C)c(=O)cc1OCCCCc1cc(F)cc(F)c1O2` [Example A-14, N-(11,13-difluoro-2-methyl-3-oxo-2,3,6,7,8,9-hexahydrodibenzo[4,5:7,8][1,6]dioxacyclododecino[3,2-c]pyridin-17-yl)ethanesulfonamide] was tested, and the Ki was 1.47 nM.
